Here are results for 22 molecules from PubChem BioAssay AID602396 (The Scripps Research Institute Molecular Screening Center, 2012).

The chains behind the UniProt entries cited, without tags or fusion partners.
UniProt O00482, whole entry: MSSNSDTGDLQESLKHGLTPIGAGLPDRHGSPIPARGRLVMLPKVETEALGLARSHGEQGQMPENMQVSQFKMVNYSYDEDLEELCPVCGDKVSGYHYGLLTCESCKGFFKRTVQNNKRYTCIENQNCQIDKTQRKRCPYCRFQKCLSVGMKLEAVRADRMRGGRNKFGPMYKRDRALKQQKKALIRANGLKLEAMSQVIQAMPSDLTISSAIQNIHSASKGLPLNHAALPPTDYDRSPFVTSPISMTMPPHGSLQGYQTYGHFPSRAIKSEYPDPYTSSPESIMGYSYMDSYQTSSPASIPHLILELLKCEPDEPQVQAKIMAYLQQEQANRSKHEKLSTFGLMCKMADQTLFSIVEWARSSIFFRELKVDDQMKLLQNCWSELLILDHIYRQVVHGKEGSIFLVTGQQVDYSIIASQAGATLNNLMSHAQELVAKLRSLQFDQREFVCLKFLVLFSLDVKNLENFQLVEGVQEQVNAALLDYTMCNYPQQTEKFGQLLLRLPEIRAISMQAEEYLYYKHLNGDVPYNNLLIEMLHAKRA

The structures appear in SMILES notation. The entries are a selection whose mix differs from that of the whole data set. Active and inactive are the calls of the source.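 Rule for the calls: active = inhibition above the mean inhibition of all tested compounds plus 3 SD (cut at about 73% in these data); inactive = the rest.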

The target of the assay is Nuclear receptor subfamily 5 group A member 2 (Homo sapiens) (UniProt O00482). As to the kind of experiment: reduction of NR5A2-driven StAR reporter activity – cell-based, luminescence, HEK293T, StAR-luciferase reporter, primary screen (AID 602396).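 Note: 0% = DMSO wells and 100% = reporter-only cells lacking LRH-1.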 The following applies: LRH-1 transfected, 24 h, at 3.6 µM, hits give high values. (Reporter assays use an easily measured gene product as a stand-in for the process of interest.)
`O=c1[nH]c2ccccc2n1C1CCN(C(c2ccccc2)c2nnnn2C2CCCCC2)CC1` (configuration not stated): the inhibition was inactive: -34.4%.

`Cc1cccc(NC2(C#N)CCN(Cc3ccccc3)CC2)c1`: the inhibition is inactive: -4.73%.

In the case of `CSc1ccccc1C(=O)NCC1(N2CCCCC2)CCCCC1`, the inhibition was inactive: 0.08%.

For `CCCCn1nnnc1C(c1cccs1)N1CCC(n2c(=O)[nH]c3ccccc32)CC1` (configuration not stated), the inhibition was inactive: 6.98%.

Consider `CCCCn1nnnc1C(CC)N1CCC(n2c(=O)[nH]c3ccccc32)CC1` (configuration not stated), for which the inhibition was inactive: -18.9%.

As for `O=C(NCC1(N2CCCCC2)CCCCC1)c1cccs1`, the inhibition is inactive: -14.3%.

In the case of `O=C(NCC1(N2CCCCC2)CCCCC1)c1ccc(=O)[nH]c1`, the inhibition is inactive: -78.8%.

As for `CCC(c1nnnn1C1CCCC1)N1CCC(n2c(=O)[nH]c3ccccc32)CC1` (configuration not stated), the inhibition is inactive: -18%.

As for `COc1ccc(C(=O)NCC2(N3CCCCC3)CCCCC2)c(OC)c1OC`, the inhibition was inactive: 0.61%.

Regarding `CC(C)(C)OC(=O)N1CCC(N(C(=O)c2ccccc2)c2ccc(F)cc2)CC1`, the inhibition was inactive: -16%.

Take `COc1ccc(C(=O)NCC2(N3CCCCC3)CCCCC2)cc1`: the inhibition was inactive: -23.5%.

With `CCCCn1nnnc1C(c1ccc(OC)cc1)N1CCC(n2c(=O)[nH]c3ccccc32)CC1` (configuration not stated), the inhibition was inactive: -7.39%.

Take `CCOC(=O)N1CCC(Nc2ccc(OC)cc2)CC1`: the inhibition is inactive: 2.18%.

For `COc1ccc(Cl)cc1C(=O)NCC1(N2CCOCC2)CCCCC1`, the inhibition was inactive: -19.6%.

`O=C(OC1CN2CCC1CC2)C1c2ccccc2Oc2ccccc21` (configuration not stated): the inhibition was inactive: -5.82%.

For `O=c1[nH]c2ccccc2n1C1CCN(C(c2cc3ccccc3o2)c2nnnn2C2CCCCC2)CC1` (configuration not stated), the inhibition was inactive: 15.8%.

With `N#CC1(Nc2ccccc2)CCN(Cc2ccccc2)CC1`, the inhibition was inactive: -4.75%.

For the molecule `O=C(NCC1(N2CCCCC2)CCCCC1)c1ccc(Cl)s1`, the inhibition is inactive: -9.5%.

In the case of `O=C(NCC1(N2CCOCC2)CCCCC1)c1cc2ccccc2o1`, the inhibition was inactive: 14.7%.

Consider `Cc1cc(C)cc(N(C(=O)c2ccccc2)C2CCN(C(=O)OC(C)(C)C)CC2)c1`, for which the inhibition is inactive: 4.22%.

For the molecule `O=c1[nH]c2ccccc2n1C1CCN(C(c2ccccc2OC(F)(F)F)c2nnnn2C2CCCCC2)CC1` (configuration not stated), the inhibition is inactive: -26.4%.

For the molecule `O=C(NCC1(N2CCCCC2)CCCCC1)c1ccc(Cl)nc1`, the inhibition was inactive: -64.6%.

By inhibition is commonly meant the change of the read-out against control, counted positive when it falls.
